{
  "sequences": {"note": "By UniProt entry, the sequences of proteins in these tests, tags left out.", "UniProt P75906, whole entry, looked up": "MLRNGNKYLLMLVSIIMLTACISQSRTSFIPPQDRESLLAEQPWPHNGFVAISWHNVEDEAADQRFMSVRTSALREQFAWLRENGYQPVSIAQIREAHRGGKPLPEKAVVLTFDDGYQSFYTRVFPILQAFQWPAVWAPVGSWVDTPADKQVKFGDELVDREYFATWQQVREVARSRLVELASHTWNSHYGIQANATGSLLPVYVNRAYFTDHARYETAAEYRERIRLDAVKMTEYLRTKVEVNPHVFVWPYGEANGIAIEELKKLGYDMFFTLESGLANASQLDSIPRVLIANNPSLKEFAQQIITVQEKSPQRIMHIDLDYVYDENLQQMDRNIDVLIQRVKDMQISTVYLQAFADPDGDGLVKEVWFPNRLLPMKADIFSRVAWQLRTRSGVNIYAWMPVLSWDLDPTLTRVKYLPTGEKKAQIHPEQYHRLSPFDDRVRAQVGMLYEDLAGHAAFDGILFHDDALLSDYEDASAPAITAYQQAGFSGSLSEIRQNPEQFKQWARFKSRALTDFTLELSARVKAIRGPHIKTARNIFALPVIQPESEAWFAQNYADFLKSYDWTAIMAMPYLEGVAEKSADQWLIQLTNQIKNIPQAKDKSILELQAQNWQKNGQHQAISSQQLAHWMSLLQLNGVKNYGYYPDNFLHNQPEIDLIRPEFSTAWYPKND"},
  "source": "BindingDB's records for 25864869",
  "note": "pKi: −log10 of the molar value.",
  "data": [
    {"biological_target": "Poly-beta-1,6-N-acetyl-D-glucosamine N-deacetylase (Escherichia coli (strain K12), UniProt P75906)", "conditions": "pH 7.5", "values": [
      {"smiles": "CO[C@@H]1OC(COCc2ccccc2)[C@@H](O)C(O)[C@@H]1NP(C)(=O)O", "note": "(stereo not given in full)", "pKi": "< 3.00"},
      {"smiles": "COC1[C@H](O)C(COCc2ccccc2)O[C@@H](OC)[C@H]1NP(C)(=O)O", "note": "(stereo not given in full)", "pKi": "< 3.00"},
      {"smiles": "CO[C@@H]1OC(CO)[C@@H](OCc2ccccc2)C(O)[C@@H]1NP(C)(=O)O", "note": "(stereo not given in full)", "pKi": "< 3.00"},
      {"smiles": "CP(=O)(O)N[C@H]1C(O)[C@H](OCc2ccccc2)C(CO)O[C@H]1OCc1ccccc1", "note": "(stereo not given in full)", "pKi": "< 3.00"},
      {"smiles": "CP(=O)(O)N[C@H]1C(O)[C@H](O)C(COCc2ccccc2)O[C@H]1OCc1ccccc1", "note": "(stereo not given in full)", "pKi": "< 3.00"}
    ]}
  ]
}
